# Measured values from patent US11548915B2, “Composition for overcoming resistance to EGFR-targeting agent” (Pinetree Therapeutics, Inc., priority 2016, dated 2023).
# Legend:
# H2009 = assay: WST-1 cell viability assay; details: H2009, NRP1-expressing; 0, 1, 2, and 4 μM, 48 hours
# A549 = assay: WST-1 cell viability assay; details: A549, NRP1-expressing; 0, 1, 2, and 4 μM, 48 hours
# AsPC-1 [1] = assay: MTT cell proliferation assay; details: AsPC-1 (Ctx^S); 0, 1, 2, 4 μM twice at 48-hour intervals, total 96 hours
# [2] = Mouse weight during xenograft experiments; details: BxPC-3, PANC-1 and AsPC-1 xenograft mice; compared to PBS
# H460 = assay: WST-1 cell viability assay; details: H460, expressing no NRP1; 0, 1, 2, and 4 μM, 48 hours
# Ctx^R BxPC-3 and PANC-1 [3] = assay: Cell adhesion assay to fibronectin (FN); details: pretreated with 100 nM at 37° C. for 30 minutes
# HCC2108 = assay: WST-1 cell viability assay; details: HCC2108, expressing no NRP1; 0, 1, 2, and 4 μM, 48 hours
# PANC-1 [4] = assay: MTT cell proliferation assay; details: PANC-1 (Ctx^R); 0, 1, 2, 4 μM twice at 48-hour intervals, total 96 hours
# BxPC-3 [5] = assay: Annexin V-FITC apoptosis assay (FACS); details: BxPC-3 (Ctx^R); 4 μM, 48 hours
# BxPC-3 [6] = assay: MTT cell proliferation assay; details: BxPC-3 (Ctx^R); 0, 1, 2, 4 μM twice at 48-hour intervals, total 96 hours
# Miapaca-2 [7] = assay: Annexin V-FITC apoptosis assay (FACS); details: Miapaca-2 (Ctx^S); 4 μM, 48 hours
# Ctx^R PANC-1 xenograft = assay: In vivo tumor growth inhibition, xenograft; details: intravenous, compared to the control PBS
# SK-LU-1 = assay: WST-1 cell viability assay; details: SK-LU-1, NRP1-expressing; 0, 1, 2, and 4 μM, 48 hours
# Miapaca-2 [8] = assay: MTT cell proliferation assay; details: Miapaca-2 (Ctx^S); 0, 1, 2, 4 μM twice at 48-hour intervals, total 96 hours
# AsPC-1 [9] = assay: Annexin V-FITC apoptosis assay (FACS); details: AsPC-1 (Ctx^S); 4 μM, 48 hours
# Ctx^S AsPC-1 xenograft = assay: In vivo tumor growth inhibition, xenograft; details: intravenous
# [10] = tested on: colorectal cancer lines having resistance to Ctx due to KRas and BRaf mutations; assay: MTT cell proliferation assay, colorectal cancer; format: cell-based; details: 0.2 μM or 1 μM, 72 hours
# H441 = assay: WST-1 cell viability assay; details: H441, NRP1-expressing; 0, 1, 2, and 4 μM, 48 hours
# [11] = tested on: Ctx^R SW1990 cells expressing no NRP1; assay: Western blot of signal inhibitory effects; details: 2 μM, 24 hours
# HCC44 = assay: WST-1 cell viability assay; details: HCC44, NRP1-expressing; 0, 1, 2, and 4 μM, 48 hours
# H522 = assay: WST-1 cell viability assay; details: H522, expressing no NRP1; 0, 1, 2, and 4 μM, 48 hours
# H1299 = assay: WST-1 cell viability assay; details: H1299, NRP1-expressing; 0, 1, 2, and 4 μM, 48 hours
# PANC-1 [12] = assay: Annexin V-FITC apoptosis assay (FACS); details: PANC-1 (Ctx^R); 4 μM, 48 hours
# Ctx^R BxPC-3 xenograft = assay: In vivo tumor growth inhibition, xenograft; details: intravenous, compared to the control PBS
# [13] = tested on: Ctx^R pancreatic cancer cell lines; assay: MTT cell proliferation after NRP1, integrin-β1 or cMet siRNA; details: NRP1 siRNA; 2 μM, 48 hours
# SW1990 = assay: MTT cell proliferation assay; details: SW1990 (Ctx^R, expressing no NRP1); 0, 1, 2, 4 μM twice at 48-hour intervals, total 96 hours
# [14] = tested on: phosphorylation of FAK, Src and Akt in Ctx^R tumor tissue; assay: Western blot on dissected tumor tissues; details: Ctx^R tumor dissected 5 hours after last administration
# Ctx^R BxPC-3 and PANC-1 [15] = assay: FACS analysis of receptor endocytosis; details: 2 μM, 0-60 min, 37° C., serum-free; FACS cell surface level
# Capan-2 = assay: MTT cell proliferation assay; details: Capan-2 (Ctx^R); 0, 1, 2, 4 μM twice at 48-hour intervals, total 96 hours
# [16] = tested on: Ctx^R lung cancer cell lines; assay: WST-1 cell viability after NRP1 siRNA; format: cell-based; details: 2 μM, 48 hours
# [17] = tested on: tumor tissues of xenograft mice; assay: Immunohistochemistry of dissected tumor tissue (Ki-67, TUNEL); format: in vivo, BALB/c nude mice; details: tumor dissected 5 hours after last administration
# Experimental: The dissected tumor tissue was fixed with 4% paraformaldehyde at 4° C. for 24 hours, and kept in 30% sucrose buffer at 4° C. for 24 hours. […] In addition, to examine apoptosis, the tumor tissue was stained with DeadEnd™ Colorimetric TUNEL System (Promega), and the nucleus was stained (blue fluorescence) with Hoechst 33342, followed by confocal microscopic observation.
# H358 = assay: WST-1 cell viability assay; details: H358, NRP1-expressing; 0, 1, 2, and 4 μM, 48 hours
# Calu-1 = assay: WST-1 cell viability assay; details: Calu-1, NRP1-expressing; 0, 1, 2, and 4 μM, 48 hours
# Calu-3 = assay: WST-1 cell viability assay; details: Calu-3, NRP1-expressing; 0, 1, 2, and 4 μM, 48 hours
# Ctx^R HCC44 and A549 = assay: FACS analysis of endocytosis of NRP1 and integrin β3; format: cell-based; details: 2 μM, 15 minutes, 37° C., serum-free; FACS cell surface level
# Excerpt: Then, the cells were washed with PBS and analyzed using the flow cytometer FACS Calibur (BD Bioscience).
# H1975 = assay: WST-1 cell viability assay; details: H1975, NRP1-expressing; 0, 1, 2, and 4 μM, 48 hours
substance,measurement,setting,value
"Ctx-TPP11: NRP1-binding TPP11 peptide fused to C-terminus of Ctx heavy chain by (G4S)3 linker; heavy chain SEQ ID NO: 4, light chain SEQ ID NO: 8",cell growth inhibitory activity (WST-1),H2009,showed cell growth inhibitory activity
same,cell growth inhibitory activity (WST-1),A549,showed cell growth inhibitory activity
same,cell growth inhibition (MTT),AsPC-1 [1],showed the same cell growth inhibitory ability
same,change in the weight of the mice (toxicity),[2],little or no change in the weight of the mice
same,cell growth inhibitory activity (WST-1),H460,showed no activity
same,adhesion of cells to FN,Ctx^R BxPC-3 and PANC-1 [3],reduced the adhesion of Ctx^R cells to FN
same,cell growth inhibitory activity (WST-1),HCC2108,showed no activity
same,cell growth inhibition (MTT),PANC-1 [4],showed cell growth inhibition
same,apoptosis (annexin V-FITC),BxPC-3 [5],induced apoptosis
same,cell growth inhibition (MTT),BxPC-3 [6],showed cell growth inhibition
same,apoptosis (annexin V-FITC),Miapaca-2 [7],induced apoptosis in the same manner
same,"tumor growth (tumor volume, tumor weight)",Ctx^R PANC-1 xenograft,inhibited the tumor growth
same,cell growth inhibitory activity (WST-1),SK-LU-1,showed cell growth inhibitory activity
same,cell growth inhibition (MTT),Miapaca-2 [8],showed the same cell growth inhibitory ability
same,apoptosis (annexin V-FITC),AsPC-1 [9],induced apoptosis in the same manner
same,tumor growth inhibitory activity,Ctx^S AsPC-1 xenograft,similar
same,"overcoming resistance to Ctx (cell proliferation, MTT)",[10],did not overcome the resistance
same,cell growth inhibitory activity (WST-1),H441,showed cell growth inhibitory activity
same,signal inhibitory effects (Western blot),[11],did not appear
same,cell growth inhibitory activity (WST-1),HCC44,showed cell growth inhibitory activity
same,cell growth inhibitory activity (WST-1),H522,showed no activity
same,cell growth inhibitory activity (WST-1),H1299,showed cell growth inhibitory activity
same,apoptosis (annexin V-FITC),PANC-1 [12],induced apoptosis
same,"tumor growth (tumor volume, tumor weight)",Ctx^R BxPC-3 xenograft,inhibited the tumor growth
same,cell growth inhibitory ability when expression of NRP1 is inhibited,[13],disappeared
same,cell growth inhibition (MTT),SW1990,showed no effect
same,"phosphorylation of FAK, Src and Akt in tumor tissue",[14],"inhibited the phosphorylation of FAK, Src and Akt"
same,endocytosis of EGFR,Ctx^R BxPC-3 and PANC-1 [15],increased the endocytosis of EGFR
same,endocytosis of NRP1,Ctx^R BxPC-3 and PANC-1 [15],increased the endocytosis of NRP1
same,endocytosis of active integrin β1,Ctx^R BxPC-3 and PANC-1 [15],increased the endocytosis of active integrin β1
same,cell growth inhibition (MTT),Capan-2,showed cell growth inhibition
same,cell growth inhibitory activity when expression of NRP1 is inhibited,[16],disappeared
same,apoptotic marker TUNEL in tumor tissue,[17],an increased amount of the apoptotic marker
same,growth marker Ki-67 in tumor tissue,[17]; IHC,a decreased amount of the growth marker
same,cell growth inhibitory activity (WST-1),H358,showed cell growth inhibitory activity
same,cell growth inhibitory activity (WST-1),Calu-1,showed cell growth inhibitory activity
same,cell growth inhibitory activity (WST-1),Calu-3,showed the same inhibitory activity against cell growth
same,endocytosis of NRP1,Ctx^R HCC44 and A549,increased the endocytosis of NRP1
same,endocytosis of integrin β3,Ctx^R HCC44 and A549,increased the endocytosis of integrin β3
same,cell growth inhibitory activity (WST-1),H1975,showed the same inhibitory activity against cell growth
